This note sets out measurements from patent publication US20110064726A1.

For the test, the target named is cynomolgus monkey IgE (cynomolgus monkey). The test can be described thus: capture ELISA, antibody coated; Test 2, Cyno 8 serum.

The substance E25 (omalizumab) (antibody) returned an IgE concentration detected of 25 ng/mL.
